Test results taken from EP1344834A2, “Methods for the toxicity prediction of a compound” (F. HOFFMANN-LA ROCHE AG, priority 2002, dated 2003).

What was measured:
Conditions in all cases: rat liver, control = 1.0
[1] = tested on: AH-R; test: Quantitative RT-PCR (SybrGreen) of liver mRNA after in vivo dosing; note: test concentration or dose not given here
[2] = tested on: PC3 (BTG2); test: as above
[3] = tested on: CYP2B2; test: as above
[4] = tested on: AH-R; test: Affymetrix GeneChip RG-U34A expression analysis of liver after in vivo dosing; note: unit not given here
[5] = tested on: PC3 (BTG2); test: as above
[6] = tested on: CYP2B2; test: as above
Throughout, for CYP2B2 Affymetrix: unit not given here.
Throughout, for CYP2B2 RT-PCR: test concentration or dose not given here.
Throughout, for PC3 (BTG2) Affymetrix: unit not given here.

(4-Amino-N-(6-bromo-1 H -indol-4-yl)-benzenesulfonamide [Ro65-7199]
AH-R RT-PCR ([1]; 6 H): 2.7 | AH-R RT-PCR ([1]; 7 D): 2.0 | AH-R RT-PCR ([1]; 24 H): 1.1 | PC3 (BTG2) RT-PCR ([2]; 6 H): 0.6 | PC3 (BTG2) RT-PCR ([2]; 7 D): 0.0 | PC3 (BTG2) RT-PCR ([2]; 24 H): 2.7 | CYP2B2 RT-PCR ([3]; 6 H): 31.2 | CYP2B2 RT-PCR ([3]; 7 D): 3.9 | CYP2B2 RT-PCR ([3]; 24 H): 15.9 | AH-R Affymetrix ([4]; 6 H): 8.0 | AH-R Affymetrix ([4]; 7 D): 2.8 | AH-R Affymetrix ([4]; 24 H): 4.5 | PC3 (BTG2) Affymetrix ([5]; 6 H): 0.1 | PC3 (BTG2) Affymetrix ([5]; 7 D): 0.7 | PC3 (BTG2) Affymetrix ([5]; 24 H): 5.7 | CYP2B2 Affymetrix ([6]; 6 H): 3.2 | CYP2B2 Affymetrix ([6]; 7 D): 4.1 | CYP2B2 Affymetrix ([6]; 24 H): 3.4
